Measured values published in patent US10029000B2, “Uses of IL-12 in hematopoiesis” (University of Southern California, priority 2003, dated 2018).

System: lethally irradiated mice
Assay: Radioprotection assay: survival of mice after total body lethal irradiation
Assay type: in vivo, mice (C57BL/6J)
Settings: cytokine given 1 hour post lethal dose radiation
Experimental: A study was conducted to assess the ability of IL-112 administration to protect, or rescue, a mammal from lethal ionizing radiation and the results are presented in FIG. 1. Mice received recombinant murine IL-12 (100 ng/mouse (which is about 5 ug/kg on average), intravenous injection) before (24 hours) or after (1 hour) lethal dose radiation (1000 rad). Mice in control group received equal volume of PBS buffer. Survival rate were analyzed by Kaplan-Meier method and p value was calculated using Log Rank Test.
A study was conducted to assess a low dose IL-12 can effectively protect a mammal from lethal dose ionizing radiation. To determine the minimum effective radioprotective dose of IL-12, different dose of IL-112 were administered to lethally irradiated animals before (24 hours before) or post (within one hour) lethal dose ionizing radiation. The best survival rate was obtained at dose of 5 ug/kg, in both before and post radiation administration. […] The dose of 5 ug/Kg can be converted to approximately 400 ng/kg as the appropriate human dose, using the general rule where the human dose is 1/12 of the murine dose.
IL-12 was administrated to mice at different doses 24 hours before radiation to determine if there is a dose dependent relationship between the concentration of IL-12 administration and survival from lethal irradiation. […]

IL-2: cytokine which can synergistically function with IL-12 in immune response
Survival rate (%): 0%
Survives (4-5 mice per group): 0
